What is called IC50 is the concentration that inhibits the measured activity by half. Read a high IC50 as weaker potency in that assay.

Drawing on ChEMBL document CHEMBL4411287, “Discovery and optimization of a series of 3-substituted indazole derivatives as multi-target kinase inhibitors for the treatment of lung squamous cell carcinoma” (Eur J Med Chem, 2019), this text covers IC50 for one compound.

In this assay the target is T1, Discoidin domain-containing receptor 2 (Homo sapiens, UniProt Q16832).
T1 sequence (Q16832 whole entry): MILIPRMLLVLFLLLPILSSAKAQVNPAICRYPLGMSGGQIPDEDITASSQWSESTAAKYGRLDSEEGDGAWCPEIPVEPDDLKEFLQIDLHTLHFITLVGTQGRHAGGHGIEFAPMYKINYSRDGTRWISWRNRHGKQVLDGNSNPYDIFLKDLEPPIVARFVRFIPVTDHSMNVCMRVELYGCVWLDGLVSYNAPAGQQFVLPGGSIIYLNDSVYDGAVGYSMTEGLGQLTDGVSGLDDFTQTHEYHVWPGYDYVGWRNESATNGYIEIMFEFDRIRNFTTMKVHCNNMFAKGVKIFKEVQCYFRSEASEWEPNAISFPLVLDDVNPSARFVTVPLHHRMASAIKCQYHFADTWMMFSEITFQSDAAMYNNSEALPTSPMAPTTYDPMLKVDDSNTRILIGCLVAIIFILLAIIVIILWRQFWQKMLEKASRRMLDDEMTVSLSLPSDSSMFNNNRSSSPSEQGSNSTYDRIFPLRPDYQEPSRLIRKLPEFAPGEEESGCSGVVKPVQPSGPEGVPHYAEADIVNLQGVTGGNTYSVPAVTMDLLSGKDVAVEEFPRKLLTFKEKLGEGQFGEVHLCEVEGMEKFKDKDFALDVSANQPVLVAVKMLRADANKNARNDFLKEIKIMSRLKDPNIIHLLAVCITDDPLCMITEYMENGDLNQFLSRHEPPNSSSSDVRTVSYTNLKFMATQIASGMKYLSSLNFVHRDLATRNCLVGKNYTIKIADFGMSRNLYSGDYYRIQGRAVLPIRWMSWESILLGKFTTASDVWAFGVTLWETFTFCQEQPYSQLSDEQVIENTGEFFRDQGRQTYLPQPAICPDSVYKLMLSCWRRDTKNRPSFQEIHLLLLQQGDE
The experiment in a line: Inhibition of DDR2 (unknown origin) using poly (Glu, Tyr) 4:1 substrate after 60 mins by ELISA.

Structures are written as SMILES.

`Cc1ccc(C(=O)Nc2cccc(C(F)(F)F)c2)cc1-c1ccc2cn[nH]c2c1`: the IC50 is 1.5 nM. That is a single-digit nanomolar value.
